Experiments:
[1] = gastro-intestinal treatment (GIT procedure) of CDBAP; assay type: in vitro ADME, human
Description: After consumption, dietary proteins and peptides are exposed to various digestive enzymatic processes in the gastrointestinal tract. In order to assess the stability of the newly identified bioactive peptides in the human gastrointestinal tract, the CDBAP preparation (prepared as described in Example 7) was subjected to a gastro-intestinal treatment (GIT) simulating the digestive conditions typically found in the human body. Samples obtained after various incubation times in the GIT model system were analysed using the on-line HPLC-Bioassay-MS or HRS-MS system to quantify any residual MAP and ITP peptides. The GIT procedure was performed in a standardized mixing device incorporating a 100 ml flask (as supplied by Vankel, US). The temperature of the water bath was set to 37.5° C. and the paddle speed was chosen such that the sample was kept in suspension (100 rpm). […] During gastric simulation 5 M HCl was used to decrease the pH. At the end of gastric simulation and during the duodenal phase 5 M NaOH was used to raise the pH. […] The total N concentration of the powder as obtained was determined and converted to protein level using the Kjeldahl factor of casein (6.38). […] The levels of MAP and ITP surviving the proteolytic treatment according to the GIT procedure were determined as described in Example 7 and the data obtained are shown in Table 10.

[2] = Simulated in-vitro gastro-intestinal digestion of synthetic MAP and ITP; assay type: in vitro ADME; settings: for remaining at 0.5 h, 1 microgram/ml / remaining at 1 h, 1 microgram/ml: simulated gastric fluid, pH 3.5
Description: For the dissolution the following solutions were used: […] Simulated gastric fluid; […]

[3] = simulated intestinal fluid, pH 6.8

Compound | Concentration in CDBAP before GIT procedure [1] [μg g^−1 powder] | % average remaining ([2]; 10 microgram/ml, 90 minutes, intestinal conditions pH 6.8) [%] | remaining at 0.5 h, 1 microgram/ml [2] [%] | remaining at 1 h, 1 microgram/ml [2] [%] | remaining at 65 min, 1 microgram/ml [2, 3] [%] | remaining at 1.25 h, 1 microgram/ml [2, 3] [%] | remaining at 1.25 h, 10 microgram/ml [2, 3] [%] | remaining at 2 h, 1 microgram/ml [2, 3] [%] | remaining at 1.5 h, 1 microgram/ml [2, 3] [%]
CC[C@H](C)[C@H](N)C(=O)N[C@H](C(=O)N1CCC[C@H]1C(=O)O)[C@@H](C)O [ITP, Isoleucine-Threonine-Proline] | 903.7 | 62 | 99 | 85 | 65 | 65 | 63 | 64 | 
CSCC[C@H](N)C(=O)N[C@@H](C)C(=O)N1CCC[C@H]1C(=O)O [MAP, Methionine-Alanine-Proline] | 2851.4 |  | 93 | 62 | 51 | 49 | 27 |  | 28
